Results on one compound are retold here after PubChem BioAssay AID588574 (Sanford-Burnham Center for Chemical Genomics, 2011).

Protein sequences, listed by entry. Tags and fused reporters are not part of them.
UniProt P42574, whole entry, looked up: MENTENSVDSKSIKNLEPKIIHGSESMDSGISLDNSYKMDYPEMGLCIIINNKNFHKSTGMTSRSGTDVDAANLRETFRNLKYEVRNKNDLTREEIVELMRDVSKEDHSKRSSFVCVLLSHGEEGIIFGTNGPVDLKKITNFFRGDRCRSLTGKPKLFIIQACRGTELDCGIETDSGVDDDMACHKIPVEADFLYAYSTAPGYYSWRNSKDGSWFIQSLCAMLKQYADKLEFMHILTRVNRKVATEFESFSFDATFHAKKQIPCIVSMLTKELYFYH
UniProt P55211, whole entry, looked up: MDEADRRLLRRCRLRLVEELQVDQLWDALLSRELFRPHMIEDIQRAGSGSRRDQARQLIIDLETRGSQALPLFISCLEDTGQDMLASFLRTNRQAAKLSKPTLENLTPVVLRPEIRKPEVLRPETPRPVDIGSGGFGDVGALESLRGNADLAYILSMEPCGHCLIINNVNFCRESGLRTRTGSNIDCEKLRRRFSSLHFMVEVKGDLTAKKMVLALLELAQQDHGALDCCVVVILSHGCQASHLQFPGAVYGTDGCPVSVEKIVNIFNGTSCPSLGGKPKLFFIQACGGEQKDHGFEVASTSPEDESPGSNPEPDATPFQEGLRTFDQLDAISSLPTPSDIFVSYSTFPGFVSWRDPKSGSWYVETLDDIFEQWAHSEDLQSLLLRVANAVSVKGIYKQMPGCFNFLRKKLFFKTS

The assay concerns the target Caspase-3 (Homo sapiens) + Caspase-9 (Homo sapiens) (UniProt P42574+P55211). As to the kind of experiment: inhibition of LZ-caspase-9 coupled caspase-3 activity – biochemical, fluorescence, uHTS hits, selectivity assay, dose response (AID 588574). To be noted: LZ-caspase-9/caspase-3 coupled fluorogenic substrate.

SMILES strings stand for the structures. pIC50: −log10 of the molar value.

In general, pIC50 refers to the IC50 on a negative log10 scale, so that one unit is a factor of ten. Turning to `CC1=C2N=C(C=C3N=C(C(C)=C4[N-][C@@](C)([C@@H]5N=C1[C@](C)(CCC(=O)NC[C@@H](C)OP(=O)([O-])O[C@H]1[C@@H](O)[C@@H](n6cnc7cc(C)c(C)cc76)O[C@@H]1CO)[C@H]5CC(N)=O)[C@@](C)(CC(N)=O)[C@@H]4CCC(N)=O)[C@@](C)(CC(N)=O)[C@@H]3CCC(N)=O)C(C)(C)[C@@H]2CCC(N)=O.[C-]#N.[Co+3]`, the pIC50 was 6.36.
